G2385R/WT (ratio of abundance in G2385R versus wild-type bait) data for five substances are collected here from PMC5511190.

For this assay, the target named is GST-LRRK2 WD40 G2385R (human) (UniProt Q5S007). The assay can be described thus: affinity purification with mass spectrometry; 5 µg GST fusion protein on glutathione-Sepharose incubated with adult mouse brain lysate or crude SV fraction (LP2) (1 mg protein) 2 h at 4 °C; washes 150 mM NaCl, 2 mM EDTA, 50 mM Tris-HCl, 0.2% Triton, pH 7.4; LC-MS/MS with label-free quantification, 4 samples per condition (GST-control, GST-WD40, GST-WD40-G2385R).
Regarding “Dihydropyrimidinase-related protein 2 (from UniProt O08553 1-572) (natural protein)”, the G2385R/WT (ratio of abundance in G2385R versus wild-type bait) turned out to be 0.5. As to “Actin-related protein 2/3 complex subunit 3 (from UniProt Q9JM76 1-178) (natural protein)”, the G2385R/WT (ratio of abundance in G2385R versus wild-type bait) worked out at 0.23. The value for “Actin-related protein 2 (from UniProt P61161 1-394) (natural protein)” was 0.52; that for “Actin-related protein 3 (from UniProt Q99JY9 1-418) (natural protein)” was 0.19; that for “Actin, cytoplasmic 2 (from UniProt P63260 1-375) (natural protein)” was 0.37.
